{
  "source": "patent US7880024B2",
  "about": "“Ionic liquids miscible with various polar/non-polar solvents and method of preparing the same” (Samsung Engineering Co., Ltd., priority 2008, dated 2011)",
  "data": [
    {"conditions": "molar ratio 1:1, 0.003 mol each; 50° C. for 1 day, then cooled to room temperature", "values": [
      {"substance": "Dimethyl Butyl Hexyl Ammonium Undecylenate [Example 1]", "Solubility (miscibility) in 1-hexane": "Y", "Solubility (miscibility) in 2-methyl butane": "Y", "Solubility (miscibility) in Hexane": "Y", "Solubility (miscibility) in Methyl cyclo hexane": "Y", "Solubility (miscibility) in Water": "Y", "Solubility (miscibility) in cyclohexane": "Y", "Solubility (miscibility) in heptane": "Y", "Solubility (miscibility) in pentane": "Y", "Solubility (miscibility) in toluene": "Y"},
      {"substance": "tributyloctyl ammonium undecylenate [Example 8]", "Solubility (miscibility) in 1-hexane": "Y", "Solubility (miscibility) in 2-methyl butane": "Y", "Solubility (miscibility) in Hexane": "Y", "Solubility (miscibility) in Methyl cyclo hexane": "Y", "Solubility (miscibility) in Water": "Y", "Solubility (miscibility) in cyclohexane": "Y", "Solubility (miscibility) in heptane": "Y", "Solubility (miscibility) in pentane": "Y", "Solubility (miscibility) in toluene": "Y"},
      {"substance": "triethyloctyl ammonium undecylenate [Example 2]", "Solubility (miscibility) in 1-hexane": "Y", "Solubility (miscibility) in 2-methyl butane": "Y", "Solubility (miscibility) in Methyl cyclo hexane": "Y", "Solubility (miscibility) in Water": "Y", "Solubility (miscibility) in cyclohexane": "Y", "Solubility (miscibility) in pentane": "Y", "Solubility (miscibility) in toluene": "Y"},
      {"substance": "tripropyloctyl ammonium undecylenate [Example 5]", "Solubility (miscibility) in 1-hexane": "Y", "Solubility (miscibility) in 2-methyl butane": "Y", "Solubility (miscibility) in Hexane": "Y", "Solubility (miscibility) in Methyl cyclo hexane": "Y", "Solubility (miscibility) in Water": "Y", "Solubility (miscibility) in cyclohexane": "Y", "Solubility (miscibility) in heptane": "Y", "Solubility (miscibility) in pentane": "Y", "Solubility (miscibility) in toluene": "Y"},
      {"substance": "tripropylhexyl ammonium undecylenate [Example 4]", "Solubility (miscibility) in 1-hexane": "Y", "Solubility (miscibility) in 2-methyl butane": "Y", "Solubility (miscibility) in Hexane": "Y", "Solubility (miscibility) in Methyl cyclo hexane": "Y", "Solubility (miscibility) in Water": "Y", "Solubility (miscibility) in cyclohexane": "Y", "Solubility (miscibility) in heptane": "Y", "Solubility (miscibility) in pentane": "Y", "Solubility (miscibility) in toluene": "Y"},
      {"substance": "tripropylbutyl ammonium undecylenate [Example 3]", "Solubility (miscibility) in Water": "Y", "Solubility (miscibility) in cyclohexane": "Y", "Solubility (miscibility) in heptane": "N", "Solubility (miscibility) in toluene": "Y"},
      {"substance": "tributylhexyl ammonium undecylenate [Example 7]", "Solubility (miscibility) in 1-hexane": "Y", "Solubility (miscibility) in 2-methyl butane": "Y", "Solubility (miscibility) in Hexane": "Y", "Solubility (miscibility) in Methyl cyclo hexane": "Y", "Solubility (miscibility) in Water": "Y", "Solubility (miscibility) in cyclohexane": "Y", "Solubility (miscibility) in heptane": "Y", "Solubility (miscibility) in pentane": "Y", "Solubility (miscibility) in toluene": "Y"},
      {"substance": "hexyltributyl ammonium oleate [Example 9]", "Solubility (miscibility) in Water": "Y", "Solubility (miscibility) in toluene": "Y"},
      {"substance": "tributylpropyl ammonium undecylenate [Example 6]", "Solubility (miscibility) in 1-hexane": "Y", "Solubility (miscibility) in Water": "Y", "Solubility (miscibility) in cyclohexane": "Y", "Solubility (miscibility) in toluene": "Y"}
    ]}
  ]
}
